# Data as given in PubChem BioAssay AID920 (The Scripps Research Institute Molecular Screening Center, 2007).
# The list shows a part of the results, in another mix than the full data. Active and inactive are the calls of the source.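 The calls were made as follows: active = inhibition above a set limit, the mean inhibition across all tested compounds plus 3 SD (cut at about 34% in these data); inactive = the rest.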
# Test: STAT1 signaling inhibitors, primary screen, cell-based, HTS, luciferase reporter (AID 920);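 also: 0% = IFN-gamma with DMSO and 100% = IFN-gamma with 300 µM nifuroxazide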
# Conditions: NIH 3T3 STAT1-luciferase reporter, IFN-gamma, luminescence; at 5.5 µM; active compounds read high
row,Compound,inhibition
1,O=[N+]([O-])c1cc([N+](=O)[O-])c(CCNc2ccccc2)c([N+](=O)[O-])c1,inactive: 11.9%
2,CCc1nc2c(n1)c1c(non1O)c1c2no[n+]1[O-],inactive: 7.01%
3,Cc1ccc(NP(=O)(Oc2ccccc2)Oc2ccccc2)nc1,inactive: -6.31%
4,CC(=O)N1C2C3N(C(C)=O)C1C1N(C(C)=O)C(C(N1C(C)=O)N3C(C)=O)N2C(C)=O,inactive: 7.34%
5,O=[N+]([O-])c1cccc2n[nH]nc12,inactive: 1.82%
6,COc1ccc(C2=NCC(CBr)S2)cc1 (centres undefined),inactive: -6.23%
7,CC1CCN(C(=O)Oc2c(Cl)cc(Cl)c3cccnc23)CC1,inactive: 16.1%
8,CN(C)C(=O)OCCc1n(C)cc[n+]1C,inactive: 0.78%
9,CC(C)=N/N=C(\N)N[N+](=O)[O-],inactive: 7.02%
10,CCN(/C(=N/P(=O)(N1CCOCC1)N1CCOCC1)N1CCOCC1)c1ccc(OC)cc1,inactive: 2.87%
11,O=[N+]([O-])c1ncn(CCn2ncnc2[N+](=O)[O-])n1,inactive: 7.39%
12,Cc1cc(SC(NC(=O)c2ccc(F)cc2)C(Cl)(Cl)Cl)ncn1 (centres undefined),inactive: 3.45%
13,CCOP(=O)(Nc1ccccc1)OCC,inactive: -2.21%
14,CCN(N=Nc1nonc1N)c1nonc1N,inactive: 7.45%
15,CN1CCCC(OC(=O)C(c2ccccc2)c2ccccc2)C1 (centres undefined),inactive: -7.29%
16,Clc1ccc(Cl)c(NC2=NCC(CBr)S2)c1 (centres undefined),inactive: -5.44%
17,COc1ccccc1OP(=O)(Nc1ccc(C)cn1)Oc1ccccc1OC,inactive: -0.01%
18,Cc1ccc(N/C(=N/P(=O)(N2CCOCC2)N2CCOCC2)N2CCOCC2)cc1,inactive: -2.95%
19,NC(=O)c1cc([N+](=O)[O-])cc([N+](=O)[O-])c1N,inactive: 0.99%
20,O=C(NC(Sc1ccncn1)C(Cl)(Cl)Cl)c1ccccc1 (centres undefined),inactive: -1.82%
21,Cc1c2non([O-])c-2c(C)[n+](=O)[n+]1[O-],inactive: 10.3%
22,Oc1ccccc1CNc1ccccn1,inactive: -3.37%
23,CC(C)CC(=O)NC(Sc1ccc(Cl)cc1)C(Cl)(Cl)Cl (centres undefined),inactive: -9.53%
24,CC(C)(C)C(=O)NC(Sc1ccccc1)C(Cl)(Cl)Cl (centres undefined),inactive: 8.77%
25,CCOc1ccc(C2=NCC(CBr)S2)cc1 (centres undefined),inactive: -2.96%
26,O=P1(Nc2nc3ccc(Cl)cc3s2)COc2ccccc2O1 (centres undefined),inactive: -6.23%
27,CC(=O)Nc1ccc(Oc2c([N+](=O)[O-])cc([N+](=O)[O-])cc2[N+](=O)[O-])cc1,inactive: 3.73%

row,Compound,inhibition
1,CCOC(=O)NC(Sc1ccccc1)C(Cl)(Cl)Cl (centres undefined),inactive: 14.1%
2,c1ccc(-c2nn[nH]n2)c(-c2nn[nH]n2)c1,inactive: -2.02%
3,O=C(NC1CCS(=O)(=O)C1)NP(=S)(Oc1ccccc1)Oc1ccccc1 (centres undefined),inactive: -2.33%
4,CCNC(=S)/N=C(\N)N[N+](=O)[O-],inactive: -0.24%
5,O=c1c2cc([N+](=O)[O-])ccc2[nH]c2c([N+](=O)[O-])cc([N+](=O)[O-])cc12,inactive: 16.8%
6,CCC(=O)N1C2C3N(C(=O)CC)C1C1N(C(=O)CC)C(C(N1C(=O)CC)N3C(=O)CC)N2C(=O)CC,inactive: -0.17%
7,CC(=O)NC(SC(=S)N(CC(C)C)CC(C)C)C(Cl)(Cl)Cl (centres undefined),inactive: 0.73%
8,Cc1ccc(OP(=O)(Nc2ccccn2)Oc2ccc(C)cc2)cc1,inactive: -3.68%
9,COC(=O)c1cc2c(s1)N=C(c1ccccc1)N(C)P2(=O)N1CCOCC1 (centres undefined),inactive: 3.73%
10,O=P(Nc1ccccn1)(c1ccc(Br)cc1)c1ccc(Br)cc1,inactive: 7.73%
11,O=C(OC1CN2CCC1CC2)c1cccc(Cl)c1 (centres undefined),inactive: -8.49%
12,C(Cc1nn[nH]n1)Cc1nn[nH]n1,inactive: -4.42%
13,CC(=O)NC(SC(=S)N(C)C)C(Cl)(Cl)Cl (centres undefined),inactive: -5.07%
14,c1nnnn1CCn1cnnn1,inactive: 0.98%
15,O=P(Nc1nccs1)(c1ccccc1)c1ccccc1,inactive: -1.8%
16,CC(C)C(=O)NC(Sc1ccccc1)C(Cl)(Cl)Cl (centres undefined),inactive: -3.58%
17,Clc1n[nH]nc1-c1nn[nH][15n]1,inactive: -1.69%
18,O=P1(Nc2ccccn2)COc2ccccc2OC1,inactive: -0.82%
19,CC(C)/C=N\N=C(\N)N[N+](=O)[O-],inactive: -2.95%
20,CC1(CBr)Cn2c(nc3ccccc3c2=O)S1 (centres undefined),inactive: -2.65%
21,CN(C)C1(CNC(=O)c2ccc(S(C)(=O)=O)cc2)CCCCC1,inactive: -6.83%
22,CC1CCC(C(C)C)C(OP(=O)(Nc2ccccn2)c2ccccc2)C1 (centres undefined),inactive: -1.67%
23,Cc1nn(-c2ccccc2)c2c1P(=O)(N1CCOCC1)N(C)C(c1ccccc1)=N2 (centres undefined),inactive: 4.51%
24,Cc1ccc(OCC(=O)OC2CN3CCC2CC3)cc1 (centres undefined),inactive: 7.68%
25,O=P1(Nc2ccc(Br)cn2)COc2ccccc2OC1,inactive: 3.88%
26,O=P1(Nc2ncccn2)COc2ccccc2OC1,inactive: -4.33%
27,O=P(Nc1nccs1)(Oc1ccccc1)Oc1ccccc1,inactive: 6.8%

row,Compound,inhibition
1,O=P(Nc1nccs1)(c1ccccc1)c1nc2ccccc2s1 (centres undefined),inactive: 6.37%
2,CCOP1(=S)c2c(C)nn(CCC#N)c2N=C(c2ccccc2F)N1C (centres undefined),inactive: -2.99%
3,CCOP1(=S)c2c(C)nn(CCC#N)c2N=C(c2ccc(F)cc2)N1C (centres undefined),inactive: 5.41%
4,O=[N+]([O-])c1ccc2c(c1)nnn2O,inactive: 6.42%
5,Cc1cccc(OCC(=O)OC2CN3CCC2CC3)c1 (centres undefined),inactive: -4.56%
6,COc1cc(C(=O)NCC2(N3CCOCC3)CCCCC2)cc(Cl)c1OC(C)C,inactive: 0.62%
7,CCOP(=O)(Nc1cccc2ccccc12)OCC,inactive: 4.65%
8,COc1cc(C2NCCC3(OCCO3)C2(C)C)cc(OC)c1OC (centres undefined),inactive: 5.7%
9,Cc1ccc(NCCc2c([N+](=O)[O-])cc([N+](=O)[O-])cc2[N+](=O)[O-])cc1,inactive: 9.92%
10,COc1ccc2nc(NP(=O)(c3ccccc3)c3ccccc3)sc2c1,inactive: 2.4%
11,Cc1c2c(nc3ccccc13)SC(C(Cl)Cl)C2 (centres undefined),inactive: -10.2%
12,Cc1cc(=O)[nH]c(N[N+](=O)[O-])n1,inactive: 2.49%
13,O=C(OC1CN2CCC1CC2)C12CC3CC(CC(C3)C1)C2 (centres undefined),inactive: 5.82%
14,COc1ccc(N/C(=N/P(=O)(N2CCOCC2)N2CCOCC2)N2CCOCC2)cc1,inactive: -3.54%
15,Cc1ccc2nc3c(c(C)c2c1)CC(C(Cl)Cl)S3 (centres undefined),inactive: -24.1%
16,O=[N+]([O-])c1cc([N+](=O)[O-])c(-c2ccn[nH]2)s1,inactive: 12.9%
17,CC(C)NC(=O)NP(=O)(Oc1ccccc1)Oc1ccccc1,inactive: -6.53%
18,CCN(CC)C(=S)SC(NC=O)C(Cl)(Cl)Cl (centres undefined),inactive: 5.84%
19,ClCCSc1nnc(-c2cccnc2)o1,inactive: -5.4%
20,Cc1cc(SC(NC(=O)c2ccccc2)C(Cl)(Cl)Cl)nc(C(C)C)n1 (centres undefined),inactive: 0%
21,Cc1cc(SC(NC=O)C(Cl)(Cl)Cl)ncn1 (centres undefined),inactive: 2.49%
22,O=P(Nc1ccccn1)(c1cccc2ccccc12)c1cccc2ccccc12,inactive: -8.44%
23,O=C(COc1ccccc1)OC1CN2CCC1CC2 (centres undefined),inactive: 7.01%
24,COP1(=S)c2c(C)nn(CCC#N)c2N=C(c2ccc(F)cc2)N1C (centres undefined),inactive: 0.16%
25,CCC(C)N(CC(C)C)C(=S)SC(NC(C)=O)C(Cl)(Cl)Cl (centres undefined),inactive: -4.43%
